{
  "sequences": {"note": "By UniProt entry, the sequences of proteins in these tests, tags left out. Where a name states a change or a piece, a line headed by the entry shows the natural chain unless it says otherwise.", "UniProt P43490": "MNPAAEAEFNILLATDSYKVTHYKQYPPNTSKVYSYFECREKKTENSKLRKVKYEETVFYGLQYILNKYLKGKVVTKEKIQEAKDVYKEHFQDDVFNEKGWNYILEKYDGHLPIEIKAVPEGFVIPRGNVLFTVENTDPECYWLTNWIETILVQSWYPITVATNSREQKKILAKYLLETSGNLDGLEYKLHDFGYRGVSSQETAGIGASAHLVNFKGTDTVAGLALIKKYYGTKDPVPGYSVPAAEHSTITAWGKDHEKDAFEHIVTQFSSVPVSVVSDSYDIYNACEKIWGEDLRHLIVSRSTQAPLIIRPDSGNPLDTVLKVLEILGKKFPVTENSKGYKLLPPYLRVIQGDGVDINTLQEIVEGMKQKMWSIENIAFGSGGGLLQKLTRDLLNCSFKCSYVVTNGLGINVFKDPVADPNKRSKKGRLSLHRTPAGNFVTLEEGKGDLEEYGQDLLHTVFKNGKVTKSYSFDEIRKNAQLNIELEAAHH"},
  "source": "patent US11959096B2",
  "about": "“Methods for selective inhibition of pluripotent stem cells” (THE MEDICAL COLLEGE OF WISCONSIN, INC., priority 2014, dated 2024)",
  "origin": "cited, not measured here",
  "target": "NAMPT (Homo sapiens, UniProt P43490)",
  "conditions": "purified enzyme assay; cited from earlier work",
  "data": [
    {"substance": "4-[[[[4-(1,1-Dimethylethyl)phenyl]sulfonyl]amino]methyl]-N-3-pyridinyl-benzamide [STF-31]", "values": [
      {"measurement": "IC50", "result": 0.019, "unit": "µM"}
    ]}
  ]
}
